From patent publication US11780935B2, “Mutant antibodies and conjugation thereof” (Pfizer Healthcare Ireland, priority 2012, dated 2023)

Columns and labels:
rats [1] = assay: Rat tolerability, single bolus dose, one week study (PFP vs NHS conjugation); format: in vivo; conditions: for survival and body weight: one week
rats [2] = assay: Exploratory toxicity study in rats, single intravenous bolus, 14 days, with plasma exposure; format: in vivo, rat; conditions: for AUC(0-312): 100 mg/kg single IV bolus, plasma; for clinical tolerability: all doses (10, 30, 100 mg/kg); for red blood cell (RBC) mass (RBC count, hemoglobin and/or hematocrit): at ≥10 or ≥30 mg/kg; for microscopic findings: necropsy day 15
Method: The three mAb conjugates were evaluated in an exploratory toxicity study in rats in which animals received single intravenous bolus doses of each ADC at 0 (vehicle), 10, 30, and 100 mg/kg (5 male rats/group) and were then observed for 14 days. Toxicology evaluation included daily clinical observations, weekly body weight measurements and clinical pathology evaluation on the day of necropsy. Animals were euthanized on day 15 and selected tissues were collected for microscopic examination.

[3] = biological target: cognate receptor for the 39-mer peptide; assay: Binding of the cognate receptor for the 39-mer peptide; conditions: read-out: Peptide target: EC50
Method: In a separate experiment, the 39-mer peptide was conjugated to h38C2-IgG2 with MAL-PEG2-PFP as described above, at different molar concentrations. In addition, binding of the cognate receptor for the 39-mer peptide was assayed. The results (Table 30) shown are consistent with directional conjugation at CLκ-K^80.

Substance	survival and body weight (rats [1]; 100 mg/kg single bolus)	survival and body weight (rats [1]; 10 and 30 mg/kg single bolus)	aspartate aminotransferase (AST) (rats [2]; 100 mg/kg)	AUC(0-312) (rats [2]) [µg·h/mL]	clinical tolerability (rats [2])	red blood cell (RBC) mass (RBC count, hemoglobin and/or hematocrit) (rats [2])	microscopic findings (rats [2])	EC50 ([3]; 39-mer peptide:h38C2-IgG2 mole ratio 2:1) [nM]	EC50 ([3]; 39-mer peptide:h38C2-IgG2 mole ratio 2.5:1) [nM]	EC50 ([3]; 39-mer peptide:h38C2-IgG2 mole ratio 4:1) [nM]	EC50 ([3]; 39-mer peptide:h38C2-IgG2 mole ratio 5:1) [nM]	animals died (rats [1]; 100 mg/kg single bolus, within one week)	% Survival (rats [1]; rats, single bolus dose 100 mg/Kg, one week study) [%]	ALT, AST, ALP and total bilirubin (rats [2]; 100 mg/kg)	clinical signs (rats [2]; 100 mg/kg)	platelet counts (rats [2]; 100 mg/kg)	premature euthanasia (rats [2]; 100 mg/kg, Day 8)	target organ toxicities (rats [2]; summary)
trastuzumab-[5PEG-MMAD]: trastuzumab conjugated to [PEG5-MMAD] by directional conjugation to CLκ-K^80 using PFP ester (Z1)	survived without significant body weight loss	survived without significant body weight loss	minimal increases	174	clinically well tolerated at all doses	mild decreases	alveolar histiocytosis/inflammation in the lung, degeneration of small bile ducts in the liver and increased tingible body macrophages (containing cell debris) in the bone marrow	–	–	–	–	–	–	–	–	–	–	–
39-mer peptide:h38C2-IgG2	–	–	–	–	–	–	–	0.99	1.06	1.01	0.82	–	–	–	–	–	–	–
hTrast-[CLκ-D^77A]-[5PEG-MMAD]: hTrast-[CLκ-D^77A] conjugated to	–	–	minimal increases	177	clinically well tolerated at all doses	mild decreases	alveolar histiocytosis/inflammation in the lung, degeneration of small bile ducts in the liver and increased tingible body macrophages (containing cell debris) in the bone marrow	–	–	–	–	–	–	–	–	–	–	–
trastuzumab-(MMAD)n: MMAD on 5PEG linker with Z13 (NHS) leaving group, non-specific conjugation to trastuzumab surface lysines [reference compound]	–	survived without significant body weight loss	–	139	–	more pronounced	more pronounced microscopic tissue alterations	–	–	–	–	Greater than 50%	50	mild increases	marked clinical signs	moderate decreases	⅕	significant target organ toxicities in the liver, kidney, lung and bone marrow

Read-outs that look alike come from different tables or passages of the source.
